Assay results from patent US20260022114A1, “N-(5-SUBSTITUTED-[(1,3,4-THIADIAZOLYL) OR (1,3-THIAZOLYL)](SUBSTITUTED)CARBOXAMIDE COMPOUNDS, PHARMACEUTICAL COMPOSITIONS, AND METHODS OF PREPARING THE AMIDE COMPOUNDS AND OF THEIR USE” (Repare Therapeutics Inc., priority 2022, published 2026).

Protein sequences, listed by entry. Tags and fused reporters are not part of them. Residues count along the entry.
UniProt O75417, 1-894 limits assumed: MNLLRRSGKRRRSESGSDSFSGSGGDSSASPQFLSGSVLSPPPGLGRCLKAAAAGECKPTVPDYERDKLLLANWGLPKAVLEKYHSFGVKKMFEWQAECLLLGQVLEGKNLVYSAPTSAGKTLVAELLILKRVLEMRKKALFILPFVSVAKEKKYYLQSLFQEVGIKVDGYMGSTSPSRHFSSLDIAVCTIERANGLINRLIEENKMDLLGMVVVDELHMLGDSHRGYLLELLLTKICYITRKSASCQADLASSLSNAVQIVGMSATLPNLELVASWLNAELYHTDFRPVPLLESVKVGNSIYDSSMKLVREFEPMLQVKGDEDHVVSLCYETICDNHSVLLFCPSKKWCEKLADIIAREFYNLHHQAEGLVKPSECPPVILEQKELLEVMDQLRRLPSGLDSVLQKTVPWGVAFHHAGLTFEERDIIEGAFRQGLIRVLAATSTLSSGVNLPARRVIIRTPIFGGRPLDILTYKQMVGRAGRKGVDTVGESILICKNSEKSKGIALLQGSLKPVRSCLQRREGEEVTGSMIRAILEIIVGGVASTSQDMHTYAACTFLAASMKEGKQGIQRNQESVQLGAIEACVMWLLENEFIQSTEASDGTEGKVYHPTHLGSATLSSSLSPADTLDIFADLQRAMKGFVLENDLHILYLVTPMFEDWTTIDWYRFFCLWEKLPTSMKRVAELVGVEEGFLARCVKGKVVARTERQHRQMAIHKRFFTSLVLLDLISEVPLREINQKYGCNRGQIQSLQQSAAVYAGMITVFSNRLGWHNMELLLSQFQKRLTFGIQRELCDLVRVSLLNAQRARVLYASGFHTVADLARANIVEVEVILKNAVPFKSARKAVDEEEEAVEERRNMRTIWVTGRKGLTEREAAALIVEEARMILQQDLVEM

Biological target: PolQ ATPase enzyme (1-894) (Homo sapiens (Human), UniProt O75417)
Assay: Polθ ATPase enzymatic assay (0.5 nM enzyme concentration), ADP-Glo
Format: biochemical
Settings: read-out: IC50 (nM) [PolQ] 0.5 nM; 0.5 nM PolQ ATPase enzyme (1-894); average IC50

SMILES	IC50 [nM]
COc1ccc(C(F)F)cc1-c1cc(Nc2ccn(C)n2)ncc1C(=O)Nc1nnc(C#CC2CC2)s1	11
COc1ccc(C(F)(F)F)cc1-c1cc(-c2ccnn2C)ncc1C(=O)Nc1nnc(C#CC2CC2)s1	0.99
Cc1nnc(Cn2cc(-c3cc(Cl)ccc3C)c(C(=O)Nc3ncc(C#CC4CC4)s3)cc2=O)o1	< 0.25
COc1cnc(C(F)F)cc1-c1cc(-c2nn[nH]n2)ncc1C(=O)Nc1nnc(C#CC2CC2)s1	< 0.25
COc1ccc(C(F)(F)F)cc1-c1cc(C(=O)c2nnc(C)o2)ncc1C(=O)Nc1nnc(C#CC2CC2)s1	< 0.25
COc1ccc(C(F)(F)F)cc1-c1cc(Cc2nnc(C)o2)ncc1C(=O)Nc1ncc(C#CC2CC2)s1	0.63
COc1cnc(C(F)F)cc1-c1cc(N2CCN(S(C)(=O)=O)C3(CC3)C2=O)ncc1C(=O)Nc1nnc(C#CC2CC2)s1	0.54
Cc1nnc(Cn2cc(-c3cc(C(F)(F)F)ccc3C)c(C(=O)Nc3ncc(C#CC4CC4)s3)cc2=O)o1	< 0.25
